## Antibody variant affinities, Ab-14 heavy chain, assay 1

From the AlphaSeq antibody data of Engelhart et al. 2022 (doi:10.1038/s41597-022-01779-4), copy in the FLAb collection.

All variants were tested on one target, the spike HR2 peptide PDVDLGDISGINAS (SARS-CoV-2).

Each scFv is VH, three GGGGS repeats, VL, as in the parent Ab-14, and differs from it in the CDRs of the heavy chain only.
VH: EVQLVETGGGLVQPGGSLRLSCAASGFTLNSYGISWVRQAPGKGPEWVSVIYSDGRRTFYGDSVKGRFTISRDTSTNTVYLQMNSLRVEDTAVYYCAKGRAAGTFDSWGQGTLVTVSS
VL: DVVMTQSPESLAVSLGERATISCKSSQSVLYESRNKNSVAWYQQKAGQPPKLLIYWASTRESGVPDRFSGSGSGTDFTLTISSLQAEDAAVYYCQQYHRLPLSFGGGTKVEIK

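Variants in AAYL49 differ from the parent at up to three CDR positions; double and triple changes were sampled at random. AlphaSeq pools MATa yeast showing the antibodies with MATalpha yeast showing the peptide. Pairs that bind mate more often; barcode pairs of the diploids are counted by sequencing. Each replicate has its own calibration line, from reference interactions of the BCL2 family. Mating was done three times.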

The parent's heavy chain CDRs are GFTLNSYGIS, VIYSDGRRTFYGDSVK, GRAAGTFDS; each variant's own CDRs replace them letter for letter.
Every variant below is changed at A102 of the VH (sequential numbering).
Numbers give log10(Kd / nM), so 0 is 1 nM and 3 is 1 µM. Smaller is tighter.
Averages over replicates are reported, and they cover detected replicates only.
An entry "nd" has no value in the source: the pair was not observed among the diploids in that replicate. This suggests poor binding but is not conclusive.
In this assay the parent's reference entry averaged 0.65; its copy inside this library read 4.11 (one replicate of three).
Background: pairings of library AAYL49 with three empty control strains gave a value in 15% of cases (median 4.06, 5th percentile 2.83). Values in that range, when seen in few replicates, are hard to tell from nonspecific mating.

The variant QFTLNRYGIS, VIYSDGRRTFYGDSVK, GRACGTFDS gave nd, nd, nd.
The variant TFTLNSVGIS, VIYSDGRRTFYGDSVK, GRAGGTFDS gave nd, nd, nd.
The variant GFCLNSYGIS, VIYSDGRQTFYGDSVK, GRANGTFDS gave 5.81, nd, 3.61 (mean 4.71).
The variant GFTLNSYGIS, DIYSDGRRTFYGDSVK, GRAWGTGDS gave 4.57, 3.48, nd (mean 4.02).
The variant GFTLNSYGIS, VIYSDGRWTFYGDSVK, GRAQITFDS gave nd, nd, 4.27.
The variant GFTLNSYGIS, VIYSDGRRTFYGDSVK, GNAMGTRDS gave nd, nd, nd.
The variant GFTLNSYGIS, QIYSDGRRDFYGDSVK, GRADGTFDS gave 4.82, 3.81, 4.86 (mean 4.50).
The variant GFTVNSYGIS, VIYSDGRRTFYGDSVM, GRACGTFDS gave 5.35, nd, nd.
The variant TFTLNSYGIS, VIYSDGRRTFYGDSVK, GRAWFTFDS gave 2.52, 3.02, 2.74 (mean 2.76).
The variant GFTLNSYGID, VIYSDGRRTFYGDSVK, GRAFGTFDS gave nd, 2.99, nd.
The variant GFTLNSYGIS, VTYSDGRRTFYGDSVK, KRAHGTFDS gave nd, nd, nd.
The variant GFTLNSYGIS, VLYSDGRRTFYGDSVK, GRAEGTFDS gave nd, nd, nd.
The variant GFTLNSYGGS, VIYSHGRRTFYGDSVK, GRANGTFDS gave 3.94, 5.12, nd (mean 4.53).
The variant GFTLNSYGIS, VIYSDGVRTFYGDSVK, GRGIGTFDS gave nd, nd, nd.
The variant GFTLNSSGIS, VIYSDGRETFYGDSVK, GRACGTFDS gave nd, nd, nd.
The variant GFTENSYGIS, VIYSDGRRTFYGDSVK, GRADGDFDS gave nd, nd, nd.
The variant GFTLGSYGIS, VIYSDGRRTWYGDSVK, GRARGTFDS gave 2.00, 1.56, 1.77 (mean 1.78).
The variant GFTLNSYGIS, VGYSDGRRTFYGCSVK, GRASGTFDS gave nd, nd, nd.
The variant PFTLNSYGDS, VIYSDGRRTFYGDSVK, GRACGTFDS gave nd, nd, nd.
The variant GFTLNSYGNS, VIYSDGRRTPYGDSVK, GRAMGTFDS gave nd, nd, nd.
The variant GFRLNSYGIS, VIYSDGRRTFYGDSVK, GRAKGTFPS gave 1.59, 2.14, 1.97 (mean 1.90).
The variant GFTLNSYGIS, VIYSDGARTCYGDSVK, GRAYGTFDS gave 3.04, nd, 2.79 (mean 2.91).
The variant GFTLNSYGIS, VIYSDGRRTFYGDSVK, GRAPGTFDP gave 0.64, 1.08, 0.95 (mean 0.89).
The variant GFPLNSYGIS, VIYSDGRRTFYGDSVK, GLAPGTFDS gave 2.17, 2.12, 2.13 (mean 2.14).
The variant GFTLNSYGIS, VIYSDGRFLFYGDSVK, GRAEGTFDS gave nd, nd, nd.
The variant GFTLNSYGIS, VIYVDGRRTFYGDSVK, GRAVGTFDS gave nd, nd, nd.
The variant GFTLNSYGIS, VIYSDGRRTFYGDSVK, GRANGPFDS gave 3.54, 2.94, 3.81 (mean 3.43).
The variant GCTLNSYGIS, VIYSDGRRTFYGDSVK, GFAPGTFDS gave 3.73, nd, nd.
The variant GFTLNSYGIS, VRYSDGRRTFGGDSVK, GRAKGTFDS gave nd, 3.43, nd.
The variant GFTLMSYGIS, VIYSDGRRTFYGDSVK, VRACGTFDS gave 2.64, 2.71, 2.88 (mean 2.75).
The variant GFTLNSYGIS, VIYSGGRRTFYGDSVK, GRANGTFDS gave 4.60, 4.62, nd (mean 4.61).